The entries are a selection whose mix differs from that of the whole data set. Active and inactive are the calls of the source.
Assay: UUG initiation codon usage in yeast – whole organism, S. cerevisiae, single point, plate reader, primary screen (AID 602363);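 further: firefly luciferase made from a UUG start codon reports start codon fidelity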
Details: S. cerevisiae UUG-firefly luciferase reporter, luminescence/redox ratio; at 18.7 µM; active compounds read high

Row | Compound | activity score
1 | CSc1ccc(Nc2c([N+](=O)[O-])cc([N+](=O)[O-])cc2[N+](=O)[O-])cc1 | inactive: -12.5%
2 | CCOP(C)(=S)SCC(=O)NC(C)C(=O)O (stereo unspecified) | inactive: -18.7%
3 | O=C(OC1CN2CCC1CC2)c1cccc([N+](=O)[O-])c1 (stereo unspecified) | inactive: -13%
4 | CP(=O)(Nc1ccccn1)Oc1ccc(Cl)cc1 (stereo unspecified) | inactive: -20.4%
5 | CCC(C)N(CC(C)C)C(=S)SC(NC(C)=O)C(Cl)(Cl)Cl (stereo unspecified) | inactive: -12.8%
6 | CP(=O)(Oc1ccccc1)OC(c1ccccc1)C(F)(F)F (stereo unspecified) | inactive: -11.5%
7 | CP(=O)(Nc1ccc(SC(F)(F)F)cc1)Oc1ccc(Cl)cc1 (stereo unspecified) | inactive: 2.35%
8 | Cc1cccc(C)c1OP(C)(=O)Nc1ccc(SC(F)(F)F)cc1 (stereo unspecified) | inactive: -11.7%
9 | Cc1ccc(Nc2c([N+](=O)[O-])cc([N+](=O)[O-])cc2[N+](=O)[O-])cc1 | inactive: -36.9%
10 | COP1(=S)c2c(C)nn(CCC#N)c2N=C(c2ccc(F)cc2)N1C (stereo unspecified) | inactive: -7.07%
11 | O=C(Nc1ccncc1[N+](=O)[O-])c1ccc([N+](=O)[O-])cc1[N+](=O)[O-] | inactive: -14.4%
12 | CCc1ccc(OP(C)(=O)N2CCN(c3ccc([N+](=O)[O-])cc3)CC2)cc1 (stereo unspecified) | inactive: -13.2%
13 | O=C(COc1ccccc1)OC1CN2CCC1CC2 (stereo unspecified) | inactive: -12.8%
14 | CCOC(=O)Nc1cccc([As](=O)(O)O)c1 | inactive: -0.554%
15 | CP(=S)(Nn1cnnc1)Oc1ccccc1 (stereo unspecified) | inactive: -7.44%
16 | O=[N+]([O-])c1ccc(Nc2ccc(Oc3ccc([N+](=O)[O-])cc3[N+](=O)[O-])cc2)c([N+](=O)[O-])c1 | inactive: -21.5%
17 | CC1CCNP(=O)(N(CCCl)CCCl)O1 (stereo unspecified) | inactive: -18.9%
18 | CCOC(=O)Nc1ccc([As](=O)(O)O)c(O)c1 | inactive: -3.23%
19 | O=C(O)C(=O)c1ccc(N(CCCl)CCCl)cc1.c1ccc(Nc2ccccc2)cc1 | inactive: 0.303%
20 | CCCCOc1ccc(C(=O)NCC2(N3CCCCC3)CCCCC2)cc1OC | inactive: -0.845%
21 | COP(=O)(OC)N1CC1c1ccccc1 (stereo unspecified) | inactive: 10.8%

Row | Compound | activity score
22 | CC(C)c1ccc(OP(=O)(Nc2ccccn2)Oc2ccccc2F)cc1 (stereo unspecified) | inactive: -8.03%
23 | Cc1ccc(NP(C)(=O)Oc2ccccc2)c(C)c1 (stereo unspecified) | inactive: -12.9%
24 | COc1ccccc1OP(C)(=O)Nc1ccc(C)cc1 (stereo unspecified) | inactive: -12.2%
25 | ClCCSc1nnc(-c2cccnc2)o1 | inactive: -16.7%
26 | CCOC(=O)c1ccc(NP(C)(=O)Oc2ccccc2)cc1 (stereo unspecified) | inactive: -18.4%
27 | Cc1cc(C)cc(OP(C)(N)=O)c1 (stereo unspecified) | inactive: 3.69%
28 | COc1ccc(OP(C)(=O)Nc2cccc(F)c2)cc1 (stereo unspecified) | inactive: -17.1%
29 | O=C(OC1CN2CCC1CC2)c1cccc2[nH]cnc12 (stereo unspecified) | inactive: -24.5%
30 | CCN(CC)C(=S)SC(NC=O)C(Cl)(Cl)Cl (stereo unspecified) | inactive: -9.9%
31 | O=[N+]([O-])c1ccc(-c2cc([N+](=O)[O-])c(O)c([N+](=O)[O-])c2)cc1 | inactive: 2.15%
32 | O=[As](O)(c1ccc(O)cc1)c1ccccc1O | inactive: 0.325%
33 | C[As](=O)(O)c1cccc(C(=O)O)c1 | inactive: -19.5%
34 | O=[N+]([O-])c1cc([N+](=O)[O-])c(Nc2cccnc2)c([N+](=O)[O-])c1 | inactive: -1.7%
35 | Cc1ccc(OP(=O)(Nc2ccc([N+](=O)[O-])cn2)Oc2ccc(C)cc2)cc1 | inactive: -22.6%
36 | COc1ccc(N/C(=N/P(=O)(N2CCOCC2)N2CCOCC2)N2CCOCC2)cc1 | inactive: -2.4%
37 | Cc1cc(=O)[nH]c(N[N+](=O)[O-])n1 | inactive: -3.34%
38 | O=C(OC1CN2CCC1CC2)C12CC3CC(CC(C3)C1)C2 (stereo unspecified) | inactive: 1.26%
39 | COc1cc(I)ccc1[As](=O)(O)O | inactive: 8.95%
40 | O=P1(N(CCCl)CCCl)Nc2ccccc2N1 | inactive: -23.8%
41 | COc1ccc(CN2/C(=N\P(=O)(Oc3ccccc3)Oc3ccccc3)Cc3ccccc3C2C2CC2)cc1 (stereo unspecified) | inactive: -14.6%
